In patent publication US20130337020A1, “Pharmaceutical Compositions” (Alpharma Pharmaceuticals LLC, priority 2006, published 2013):

Conditions: in comparison to a 15 mg dose of hydrocodone

For CN1CC[C@]23c4c5ccc(O)c4O[C@H]2C(=O)CC[C@H]3[C@H]1C5 [Hydromorphone], the “Equianalgesic Doses of Opioids, Calculated Dose” value was 3.375 mg.
